# Membrane permeability of cyclic peptides

Values of Hosono et al. 2020, doi:10.26434/chemrxiv.12272861.v1, as listed in CycPeptMPDB.

PAMPA measures passive passage through an artificial lipid membrane. Values are log10 P with P in cm/s, so -5 is more permeable than -7.

Listed for CC(C)C[C@@H]1NC(=O)[C@H](Cc2ccc(O)cc2)NC(=O)[C@H]2CCCN2C(=O)[C@H](CC(C)C)OC(=O)[C@H](CC(C)C)NC(=O)[C@@H](CC(C)C)NC1=O: PAMPA -5.54 (log10 cm/s). CC(C)C[C@@H]1NC(=O)[C@@H](CC(C)C)NC(=O)[C@H](CC(C)C)N(C)C(=O)[C@H](Cc2ccc(O)cc2)NC(=O)[C@H]2CCCN2C(=O)[C@H](CC(C)C)NC1=O is reported with PAMPA -6.22 (log10 cm/s). CC(C)C[C@@H]1NC(=O)[C@H](Cc2ccc(O)cc2)NC(=O)[C@H]2CCCN2C(=O)[C@H](CC(C)C)NC(=O)[C@H](CC(C)C)OC(=O)[C@@H](CC(C)C)NC1=O has PAMPA -5.39 (log10 cm/s). CC(C)C[C@@H]1NC(=O)[C@H](Cc2ccc(O)cc2)NC(=O)[C@H]2CCCN2C(=O)[C@H](CC(C)C)N(C)C(=O)[C@H](CC(C)C)NC(=O)[C@@H](CC(C)C)NC1=O has PAMPA -6.30 (log10 cm/s). CC(C)C[C@@H]1NC(=O)[C@@H](CC(C)C)NC(=O)[C@H](CC(C)C)OC(=O)[C@H](Cc2ccc(O)cc2)NC(=O)[C@H]2CCCN2C(=O)[C@H](CC(C)C)NC1=O is reported with PAMPA -5.51 (log10 cm/s). Listed for CC(C)C[C@@H]1NC(=O)[C@@H](CC(C)C)OC(=O)[C@H](CC(C)C)NC(=O)[C@H](Cc2ccc(O)cc2)NC(=O)[C@H]2CCCN2C(=O)[C@H](CC(C)C)NC1=O: PAMPA -6.40 (log10 cm/s).

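The data file gives no further conditions (lipid, pH, time, direction or concentration), and values from different papers need not be comparable. The list need not hold all peptides of the study. Peptides that the database sets to -10, its floor, are left out.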